Experimental data: US5240910A

Sequences of proteins named here, by UniProt entry; tags and fusion partners are left off. Residues count along the entry.
UniProt P21451, 27-442 limits assumed: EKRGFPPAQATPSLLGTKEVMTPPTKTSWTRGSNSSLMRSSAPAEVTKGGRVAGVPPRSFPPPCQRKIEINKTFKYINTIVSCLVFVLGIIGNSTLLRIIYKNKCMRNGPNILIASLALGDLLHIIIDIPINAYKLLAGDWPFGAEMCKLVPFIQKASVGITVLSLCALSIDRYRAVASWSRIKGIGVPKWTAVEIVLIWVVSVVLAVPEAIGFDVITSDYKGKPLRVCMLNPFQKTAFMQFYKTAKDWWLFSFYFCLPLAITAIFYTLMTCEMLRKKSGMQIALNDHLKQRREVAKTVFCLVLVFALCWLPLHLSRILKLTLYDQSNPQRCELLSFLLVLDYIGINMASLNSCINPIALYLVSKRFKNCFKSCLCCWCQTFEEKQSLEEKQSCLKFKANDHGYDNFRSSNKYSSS
UniProt P21450, 21-427 limits assumed: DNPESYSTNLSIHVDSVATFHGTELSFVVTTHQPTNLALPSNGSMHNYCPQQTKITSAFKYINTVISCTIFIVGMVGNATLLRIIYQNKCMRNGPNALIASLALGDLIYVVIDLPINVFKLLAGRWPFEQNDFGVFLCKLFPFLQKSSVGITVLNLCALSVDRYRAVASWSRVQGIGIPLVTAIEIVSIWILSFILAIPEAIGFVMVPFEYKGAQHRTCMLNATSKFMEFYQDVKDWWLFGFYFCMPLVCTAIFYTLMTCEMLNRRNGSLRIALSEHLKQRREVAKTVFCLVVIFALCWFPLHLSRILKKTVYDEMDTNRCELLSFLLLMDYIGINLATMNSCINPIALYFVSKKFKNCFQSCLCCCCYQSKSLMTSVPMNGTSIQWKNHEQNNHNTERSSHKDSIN

Assays:
[1] = target: endothelin receptor (ET-B), rat hippocampus (Rattus norvegicus, UniProt P21451); assay: [125I]-ET-1 endothelin receptor binding assay, rat hippocampus membranes; conditions: for Ki: read-out: Ki vs. [125I]-ET-1, Rat Hippocampus (ET-B), ET-B; for IC50: read-out: [125I]endothelin binding: IC50, rat hippocampus, 25 pM 125I-ET-1, 37° C.
Description: (§1) The binding of cochinmycins IV and V to the endothelin receptor was determined in accordance with the assay described in detail immediately below. It is similar to the assay described in Ambar et al. (1989) Biochem. Biophys. Res. Commun. 158, 195-201; and Kloog et al. (1989) Febs Letters, 253, 199-202.
(§2) Endothelin-1 (ET-1) was purchased from Peptides International (Louisville, Ky.). ^125 I-ET-1(2000 Ci/mMol) was purchased from Amersham (Arlington Heights, Ill.).
(§3) Membranes were prepared from rat hippocampus, and rat or cow aorta. Dissected tissue was homogenized twice for 30 seconds with a Brinkman POLYTRON [setting 10, Generator PTA 20 TS (Westbury, N.Y.)] in ice cold 250 mM sucrose, 50 mM Tris-HCl pH 7.4 with 7 μg/ml pepstatin A and 0.5 μg/ml leupeptin. The crude particulate matter was removed by centrifugation at 750×g for 10 min. The membranes were sedimented from the supernatant fraction by centrifugation at 48,000 g for 30 min. Membrane pellets were resuspended in the above buffer with protease inhibitors. Aliquots of these suspensions were stored at -70° C.
(§4) Binding studies with ^125 I-ET-1were conducted in 50 mM potassium phosphate pH 7.5 with 0.1% bovine serum albumin (BSA) using 12-well SKATRON (Lier, Norway) cell harvester tube strips. ^125 I-ET-1 concentrations were 25 pM for hippocampus, 150 pM for aorta. Samples were dissolved in dimethylsulfoxide (DMSO). Upon addition of the sample, the final DMSO concentration was 3%. Membranes were added last to start the binding reaction. The reaction mixture was incubated at 37° C. for 30 or 60 minutes. Binding reactions were terminated using a SKATRON cell harvester by filtration through glass fiber filter pads presoaked with 2% BSA. The samples on the pads were immediately washed with 150 mM NaCl 0.1% BSA. The pads were punched out and radioactivity was evaluated in a Beckman GAMMA 5500 gamma counter (Fullerton, Calif.). Nonspecific binding was determined in the presence of 100 nM ET-1.

[2] = target: endothelin receptor (ET-A), cow aorta (Bos taurus, UniProt P21450); assay: [125I]-ET-1 endothelin receptor binding assay, cow aorta membranes; conditions: for Ki: read-out: Ki vs. [125I]-ET-1, Cow Aorta (ET-A), ET-A; for IC50: read-out: [125I]endothelin binding: IC50, cow aorta, 150 pM 125I-ET-1, 37° C.
Description: as §1, §2, §3, §4

| Ki [1] [µM] | IC50 [1] [µM] | Ki [2] [µM] | IC50 [2] [µM] | SMILES |
| --- | --- | --- | --- | --- |
| 0.2 | 2 | 0.3 | 3 | C[C@H]1OC(=O)[C@H](c2cc(O)cc(O)c2)NC(=O)[C@@H](c2cc(O)cc(O)c2)NC(=O)[C@@H](CO)NC(=O)[C@@H](Cc2ccccc2)NC(=O)[C@@H]1NC(=O)[C@H](Cc1ccccc1)NC(=O)c1ccc(Cl)[nH]1 |
| 2.5 | 25 | 9 | 90 | C[C@H]1NC(=O)[C@@H](Cc2ccccc2)NC(=O)[C@H](NC(=O)[C@H](Cc2ccccc2)NC(=O)c2ccc[nH]2)[C@@H](C)OC(=O)[C@H](c2cc(O)cc(O)c2)NC(=O)[C@@H](c2cc(O)cc(O)c2)NC1=O |
